In assay [1] the test system is soman-induced seizures. Particulars: isoflurane anesthesia maintained for 1.5 hours; cited from earlier work.
A further assay has as its system sarin poisoning. Particulars: 2% isoflurane in 100% oxygen continuously for 6 hours; cited from earlier work.
The subject of assay [2] is paraoxon intoxication. As to the kind of experiment: Survival after lethal dose of paraoxon.
For assay [3], the system named is paraoxon-induced seizures. As to the kind of experiment: Seizure severity (modified Racine scale) after paraoxon intoxication.
The subject of assay [4] is paraoxon-induced neuronal degeneration. As to the kind of experiment: Fluoro-Jade (FJC/FJB) staining for acute neurodegeneration 24 hours after paraoxon.
Assay [5] deals with paraoxon intoxication. The assay can be described thus: Behavioral observation (sedation, appearance) after brief isoflurane in paraoxon-intoxicated rats.
The subject of the next assay is OP-CTA poisoning. Particulars: if treatment is delayed; cited from earlier work.
Assay [6] relates to soman-induced seizures. Particulars: sub-anesthetic doses, 30 minutes after soman challenge; cited from earlier work.
[7] abbreviates: 1% for 4 minutes, 30 minutes after paraoxon.
Where [8] appears, read: 4 minute isoflurane (2% for 3 minute and 3.5% or higher for 1 minute) 20 or 30 minutes after paraoxon.
Setting [9] is: brief isoflurane initiated at 120 minutes after paraoxon.
The mark [10] stands for this setting: 4%, 4.5% or 5% isoflurane for 5 minutes, 1 hour after paraoxon.
Setting [11] is: brief isoflurane 30 minutes after paraoxon.

The structures appear in SMILES notation.

As to `FC(F)OC(Cl)C(F)(F)F` (stereo not shown), in the assay with soman-induced seizures [1], the “edema in selected brain areas” value is listed as “attenuated edema”. Besides, the soman-induced seizures result with soman-induced seizures [1] is “interrupted soman-induced seizures”. In addition, the “protection against sarin poisoning” value with sarin poisoning is given as “profound protection”. This molecule also came in with a survival rate in the assay with paraoxon intoxication [2] (brief isoflurane (2% 3 min, 5% 1 min) in 100% oxygen 10 to 120 minutes after paraoxon, n=6/group) of 100%. The survival result in the assay with paraoxon intoxication [2] (brief isoflurane between 10 and 120 minutes after paraoxon) is reported as “improved survival at all time points”. The prevention of seizures result in assay [3] (setting [7]) is given as “failed to prevent seizures”. In addition, the “post-exposure time of peak effectiveness on seizure severity” value in assay [3] (2% 3 min then 5% 1 min, time after exposure to paraoxon) is “about 30 minutes”. Moreover, the seizure severity result in assay [3] (2% isoflurane 3 min then 5% 1 min in 100% oxygen, about 10 minutes to about 2 hours after paraoxon 4 mg/kg) is reported as “decreased seizure severity significantly”. Further, in assay [3] (4%, 4.5% or 5% isoflurane in 100% oxygen for 5 minutes, 1 hour after paraoxon), the “seizure activity after brief isoflurane” value is “did not exhibit any signs of seizure activity”. Moreover, the seizure activity result in assay [3] (setting [8]) is given as “prevented further seizure activity”; in assay [3] (brief isoflurane at 45 minutes or later post-paraoxon) it was “continued moderate to severe seizure activity”. Further, in assay [3] (30 minutes after paraoxon, 2% 3 min then 3.5% or 5% for the final minute), the “seizures induced by paraoxon” value is listed as “stopped seizures”. The “effectiveness in dose-response studies” value in assay [3] (about 2% isoflurane for 3 minutes followed by 1 minute in the ~3.5% to 5% range) was “effective”. Moreover, the “minimum effective concentration of isoflurane” value in assay [3] (brief administration 30 minutes after paraoxon) was 3.5%. Also, in assay [3] (brief isoflurane initiated 45 or 60 minutes after paraoxon), the “time until significant reduction in seizure severity below stage 2” value is 7 h. Also, the “time to complete suppression of seizures” value in assay [3] (brief isoflurane initiated at 20 or 30 minutes after paraoxon) is at most 10 min. Besides, the “seizure severity 1 hour after treatment (3 hour time point)” value in assay [3] (setting [9]) is reported as “statistically significant reduction in seizure severity”. Moreover, in assay [3] (setting [9]), the “seizure severity (Racine stage) at all time points observed” value is on record as at least 3 stage. In addition, the prevention of neurodegeneration entry in assay [4] (setting [7]) is given as “failed to prevent”. Further, the “neurodegeneration (FJB staining) at 24 hours” value in assay [4] (4% isoflurane for 5 minutes one hour after paraoxon) is “significantly reduced neurodegeneration”; in assay [4] (4.5% isoflurane for 5 minutes one hour after paraoxon), “minimal neurodegeneration”. Further, in assay [4] (setting [10]), the “degenerating neurons 24 hours after paraoxon” value was “significantly reduced”. The “neurodegeneration 24 hours later” value in assay [4] (setting [8]) is on record as “no neurodegeneration”. Moreover, the “neurodegeneration 24 hours after intoxication” value is on record as “extensive neurodegeneration” in assay [4] (30 minutes after paraoxon, 1% (4 minutes) or 2% (4 minutes)) and “no neurodegeneration” in assay [4] (30 minutes after paraoxon, 3.5% or 5% isoflurane for the last minute). In addition, the FJC stained neurons result in assay [4] (30 minutes after paraoxon, 1% isoflurane for 4 minutes) is recorded as “Numerous FJC stained neurons”. Besides, the rats with neurodegeneration in assay [4] (brief isoflurane 45 or 60 minutes after paraoxon, each group) is listed as 5 out of 6. Besides, the “rats with acute neurodegeneration (positive FJC staining)” value in assay [4] (brief isoflurane 10 minutes after paraoxon, 24 hours) is 2 out of 6. Also, the “FJC staining, medial cortical amygdala” value in assay [4] (setting [11]) is on record as “Staining was not seen”. In addition, in assay [4] (setting [11]), the “neuronal loss (FJC), hippocampus and dorsolateral thalamus” value is listed as “neuronal loss was prevented”. The “neuronal loss / neurodegeneration (FJC)” value in assay [4] (brief isoflurane 30 minutes after paraoxon, 24 hours) was “no neuronal loss”; in assay [4] (brief isoflurane 30 minutes after paraoxon, 24 hours, listed as Isoflurane) it was “prevented the neurodegeneration”. Further, in assay [4] (brief isoflurane at 20 and 30 minutes after paraoxon, 24 hours, n=6 per group), the “acute neurodegeneration (FJC staining)” value is recorded as “no acute neurodegeneration”. Also, the “animals showing neurodegeneration 24 hours after paraoxon” value in assay [4] (brief isoflurane at 120 minutes after paraoxon, n=6) is “all animals”. For the same molecule, the neuroprotection entry in assay [4] (brief isoflurane at the 10, 45 and 60 minute post-exposure time points) is “Only partial neuroprotection”. Moreover, the “number of degenerating neurons (Fluoro-Jade-C) at 24 h” value in assay [4] (isoflurane treated groups, time course about 10 minutes to about 2 hours) is on record as “decreased significantly”. The “appearance after 24 hours” value with paraoxon intoxication [5] (setting [10]) is on record as “appeared normal”. Further, the “behavior 24 hours later” value with paraoxon intoxication [5] (setting [8]) was “normal behavior”.
Take `CN1C(=O)CN=C(c2ccccc2)c2cc(Cl)ccc21`: in the assay with OP-CTA poisoning, the “effectiveness of anticonvulsant treatment” value is recorded as “loses effectiveness”.
For `CNC1(c2ccccc2Cl)CCCCC1=O` (stereo not shown), the ongoing seizures result in the assay with soman-induced seizures [6] is “stop ongoing seizures”.

The values above are taken from patent publication US11291637B2, “Methods for treating or preventing organophosphate poisoning” (dated 2022).
